US7101853B2 (Amylin Pharmaceuticals, Inc., priority 1997, dated 2006)

Biological target: T1, amylin receptors (Rattus norvegicus, UniProt P32214)
T1 construct: This basal forebrain tissue, containing the nucleus accumbens and surrounding regions, was weighed and homogenized; from tissue; host or cells: rat basal forebrain (nucleus accumbens and surrounding regions) membranes
T1 sequence (P32214 25-516): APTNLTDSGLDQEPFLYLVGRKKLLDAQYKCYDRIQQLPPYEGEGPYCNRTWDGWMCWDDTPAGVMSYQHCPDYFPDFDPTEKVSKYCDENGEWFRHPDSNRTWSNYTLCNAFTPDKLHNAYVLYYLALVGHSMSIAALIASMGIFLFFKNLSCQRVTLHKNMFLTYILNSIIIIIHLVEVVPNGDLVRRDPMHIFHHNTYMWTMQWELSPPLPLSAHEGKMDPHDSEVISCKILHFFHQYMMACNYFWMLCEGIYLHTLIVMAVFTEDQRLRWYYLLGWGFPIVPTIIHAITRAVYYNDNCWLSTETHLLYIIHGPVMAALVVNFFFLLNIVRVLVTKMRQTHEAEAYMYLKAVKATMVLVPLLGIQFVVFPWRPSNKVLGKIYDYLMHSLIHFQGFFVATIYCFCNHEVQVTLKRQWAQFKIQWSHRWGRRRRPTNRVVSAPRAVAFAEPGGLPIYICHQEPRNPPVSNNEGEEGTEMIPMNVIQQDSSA
T1 sequence (Q9JJ74 27-148 partner): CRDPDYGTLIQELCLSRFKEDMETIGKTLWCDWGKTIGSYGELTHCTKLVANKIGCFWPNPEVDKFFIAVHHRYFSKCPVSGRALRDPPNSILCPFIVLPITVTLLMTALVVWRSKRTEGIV
Experiment: Receptor binding assay (competition with 125I Bolton-Hunter rat amylin, basal forebrain membranes)
Details: 125I-amylin 12-16 pM
Procedure: The receptor binding assay is described in U.S. Pat. No. 5,264,372, issued Nov. 23, 1993, the disclosure of which is incorporated herein by reference. […] A preferred source of the membrane preparations used in the assay is the basal forebrain which comprises membranes from the nucleus accumbens and surrounding regions. […] Competition curves, wherein the amount bound (B) is plotted as a function of the log of the concentration of ligand are analyzed by computer, using analyses by nonlinear regression to a 4-parameter logistic equation (Inplot program; GraphPAD Software, San Diego, Calif.) or the ALLFIT program of DeLean et. al. (ALLFIT, Version 2.7 (NIH, Bethesda, Md. 20892)). […] Specific activities at time of use ranged from 1950 to 2000 Ci/mmol. Unlabeled peptides were obtained from BACHEM Inc. (Torrance, Calif.) and Peninsula Laboratories (Belmont, Calif.). Male Sprague-Dawley rats (200-250) grams were sacrificed by decapitation. Brains were removed to cold phosphate-buffered saline (PBS). From the ventral surface, cuts were made rostral to the hypothalamus, bounded laterally by the olfactory tracts and extending at a 45° angle medially from these tracts. This basal forebrain tissue, containing the nucleus accumbens and surrounding regions, was weighed and homogenized in ice-cold 20 mM HEPES buffer (20 mM HEPES acid, pH adjusted to 7.4 with NaOH at 23° C.). Membranes were washed three times in fresh buffer by centrifugation for 15 minutes at 48,000× g. The final membrane pellet was resuspended in 20 mM HEPES buffer containing 0.2 mM phenylmethylsulfonyl fluoride (PMSF). […] Solutions were incubated for 60 minutes at 23° C. […] Filters were removed and radioactivity assessed in a gamma-counter at a counting efficiency of 77 %. Competition curves were generated by measuring binding in the presence of 10^−12 to 10^−6 M unlabeled test compound and were analyzed by nonlinear regression using a 4-parameter logistic equation (Inplot program; GraphPAD Software, San Diego).

IC50 [nM] | Compound
0.021 | CC[C@H](C)[C@H](NC(=O)[C@@H]1CCCN1C(=O)CNC(=O)[C@H](Cc1ccccc1)NC(=O)[C@H](CC(N)=O)NC(=O)[C@H](CC(N)=O)NC(=O)[C@H](CO)NC(=O)[C@H](CO)NC(=O)[C@H](CCCNC(=N)N)NC(=O)[C@@H](NC(=O)[C@H](CC(C)C)NC(=O)[C@H](Cc1ccccc1)NC(=O)[C@H](CC(N)=O)NC(=O)[C@H](C)NC(=O)[C@H](CC(C)C)NC(=O)[C@H](CCCNC(=N)N)NC(=O)[C@H](CCC(N)=O)NC(=O)[C@@H](NC(=O)[C@H](C)NC(=O)[C@@H]1CSSC[C@H](N)C(=O)N[C@@H](CC(N)=O)C(=O)N[C@@H]([C@@H](C)O)C(=O)N[C@@H](C)C(=O)N[C@@H]([C@@H](C)O)C(=O)N1)[C@@H](C)O)C(C)C)C(=O)N[C@@H](CC(C)C)C(=O)N1CCC[C@H]1C(=O)N1CCC[C@H]1C(=O)N[C@H](C(=O)N[C@@H](CC(N)=O)C(=O)N[C@H](C(=O)NCC(=O)N[C@@H](CO)C(=O)N[C@@H](CC(N)=O)C(=O)N[C@H](C(=O)N[C@@H](Cc1ccc(O)cc1)C(N)=O)[C@@H](C)O)C(C)C)[C@@H](C)O [des-^1Lys^18Arg^25,28,29Pro-h-Amylin]
0.014 | CC[C@H](C)[C@H](NC(=O)[C@@H]1CCCN1C(=O)CNC(=O)[C@H](Cc1ccccc1)NC(=O)[C@H](CC(N)=O)NC(=O)[C@H](CC(N)=O)NC(=O)[C@H](CO)NC(=O)[C@H](CO)NC(=O)[C@H](Cc1c[nH]cn1)NC(=O)[C@@H](NC(=O)[C@H](CC(C)C)NC(=O)[C@H](Cc1ccccc1)NC(=O)[C@H](CC(N)=O)NC(=O)[C@H](C)NC(=O)[C@H](CC(C)C)NC(=O)[C@H](CCCNC(=N)N)NC(=O)[C@H](CCC(N)=O)NC(=O)[C@@H](NC(=O)[C@H](C)NC(=O)[C@@H]1CSSC[C@H](N)C(=O)N[C@@H](CC(N)=O)C(=O)N[C@@H]([C@@H](C)O)C(=O)N[C@@H](C)C(=O)N[C@@H]([C@@H](C)O)C(=O)N1)[C@@H](C)O)C(C)C)C(=O)N[C@@H](CC(C)C)C(=O)N1CCC[C@H]1C(=O)N1CCC[C@H]1C(=O)N[C@H](C(=O)N[C@@H](CC(N)=O)C(=O)N[C@H](C(=O)NCC(=O)N[C@@H](CO)C(=O)N[C@@H](CC(N)=O)C(=O)N[C@H](C(=O)N[C@@H](Cc1ccc(O)cc1)C(N)=O)[C@@H](C)O)C(C)C)[C@@H](C)O [des-^1Lys^25,28,29Pro-h-Amylin]
0.082 | CC[C@H](C)[C@H](NC(=O)[C@@H]1CCCN1C(=O)CNC(=O)[C@H](Cc1ccccc1)NC(=O)[C@H](CC(N)=O)NC(=O)[C@H](CC(N)=O)NC(=O)[C@H](CO)NC(=O)[C@H](CO)NC(=O)[C@H](CCCNC(=N)N)NC(=O)[C@@H](NC(=O)[C@H](CC(C)C)NC(=O)[C@H](Cc1ccccc1)NC(=O)[C@H](CC(N)=O)NC(=O)[C@H](C)NC(=O)[C@H](CC(C)C)NC(=O)[C@H](CCCNC(=N)N)NC(=O)[C@H](CCC(N)=O)NC(=O)[C@@H](NC(=O)[C@H](C)NC(=O)[C@@H]1CSSC[C@H](N)C(=O)N[C@@H](CC(N)=O)C(=O)N[C@@H]([C@@H](C)O)C(=O)N[C@@H](C)C(=O)N[C@@H]([C@@H](C)O)C(=O)N1)[C@@H](C)O)C(C)C)C(=O)N[C@@H](CC(C)C)C(=O)N1CCC[C@H]1C(=O)N[C@@H](CO)C(=O)N[C@H](C(=O)N[C@@H](CC(N)=O)C(=O)N[C@H](C(=O)NCC(=O)N[C@@H](CO)C(=O)N[C@@H](CC(N)=O)C(=O)N[C@H](C(=O)N[C@@H](Cc1ccc(O)cc1)C(N)=O)[C@@H](C)O)C(C)C)[C@@H](C)O [des-^1Lys^18Arg^25,28Pro-h-Amylin]

System: treated test animals
Experiment: Amylin activity in vivo in treated test animals
Details: not given

Compound | Amylin activity in vivo
CC[C@H](C)[C@H](NC(=O)[C@@H]1CCCN1C(=O)CNC(=O)[C@H](Cc1ccccc1)NC(=O)[C@H](CC(N)=O)NC(=O)[C@H](CC(N)=O)NC(=O)[C@H](CO)NC(=O)[C@H](CO)NC(=O)[C@H](CCCNC(=N)N)NC(=O)[C@@H](NC(=O)[C@H](CC(C)C)NC(=O)[C@H](Cc1ccccc1)NC(=O)[C@H](CC(N)=O)NC(=O)[C@H](C)NC(=O)[C@H](CC(C)C)NC(=O)[C@H](CCCNC(=N)N)NC(=O)[C@H](CCC(N)=O)NC(=O)[C@@H](NC(=O)[C@H](C)NC(=O)[C@@H]1CSSC[C@H](N)C(=O)N[C@@H](CC(N)=O)C(=O)N[C@@H]([C@@H](C)O)C(=O)N[C@@H](C)C(=O)N[C@@H]([C@@H](C)O)C(=O)N1)[C@@H](C)O)C(C)C)C(=O)N[C@@H](CC(C)C)C(=O)N1CCC[C@H]1C(=O)N[C@@H](CO)C(=O)N[C@H](C(=O)N[C@@H](CC(N)=O)C(=O)N[C@H](C(=O)NCC(=O)N[C@@H](CO)C(=O)N[C@@H](CC(N)=O)C(=O)N[C@H](C(=O)N[C@@H](Cc1ccc(O)cc1)C(N)=O)[C@@H](C)O)C(C)C)[C@@H](C)O [des-^1Lys^18Arg^25,28Pro-h-Amylin] | show amylin activity in vivo
CC[C@H](C)[C@H](NC(=O)[C@@H]1CCCN1C(=O)CNC(=O)[C@H](Cc1ccccc1)NC(=O)[C@H](CC(N)=O)NC(=O)[C@H](CC(N)=O)NC(=O)[C@H](CO)NC(=O)[C@H](CO)NC(=O)[C@H](CCCNC(=N)N)NC(=O)[C@@H](NC(=O)[C@H](CC(C)C)NC(=O)[C@H](Cc1ccccc1)NC(=O)[C@H](CC(N)=O)NC(=O)[C@H](C)NC(=O)[C@H](CC(C)C)NC(=O)[C@H](CCCNC(=N)N)NC(=O)[C@H](CCC(N)=O)NC(=O)[C@@H](NC(=O)[C@H](C)NC(=O)[C@@H]1CSSC[C@H](NC(=O)[C@@H](N)CCCCN)C(=O)N[C@@H](CC(N)=O)C(=O)N[C@@H]([C@@H](C)O)C(=O)N[C@@H](C)C(=O)N[C@@H]([C@@H](C)O)C(=O)N1)[C@@H](C)O)C(C)C)C(=O)N[C@@H](CC(C)C)C(=O)N1CCC[C@H]1C(=O)N[C@@H](CO)C(=O)N[C@H](C(=O)N[C@@H](CC(N)=O)C(=O)N[C@H](C(=O)NCC(=O)N[C@@H](CO)C(=O)N[C@@H](CC(N)=O)C(=O)N[C@H](C(=O)N[C@@H](Cc1ccc(O)cc1)C(N)=O)[C@@H](C)O)C(C)C)[C@@H](C)O [^18Arg^25,28Pro-h-Amylin] | show amylin activity in vivo
CC[C@H](C)[C@H](NC(=O)[C@H](C)NC(=O)CNC(=O)[C@H](Cc1ccccc1)NC(=O)[C@H](CC(N)=O)NC(=O)[C@H](CC(N)=O)NC(=O)[C@H](CO)NC(=O)[C@H](CO)NC(=O)[C@H](Cc1c[nH]cn1)NC(=O)[C@@H](NC(=O)[C@H](CC(C)C)NC(=O)[C@H](Cc1ccccc1)NC(=O)[C@H](CC(N)=O)NC(=O)[C@H](C)NC(=O)[C@H](CC(C)C)NC(=O)[C@H](CCCNC(=N)N)NC(=O)[C@H](CCC(N)=O)NC(=O)[C@@H](NC(=O)[C@H](C)NC(=O)[C@@H]1CSSC[C@H](NC(=O)[C@@H](N)CCCCN)C(=O)N[C@@H](CC(N)=O)C(=O)N[C@@H]([C@@H](C)O)C(=O)N[C@@H](C)C(=O)N[C@@H]([C@@H](C)O)C(=O)N1)[C@@H](C)O)C(C)C)C(=O)N[C@@H](CC(C)C)C(=O)N1CCC[C@H]1C(=O)N[C@@H](CO)C(=O)N[C@H](C(=O)N[C@@H](CC(N)=O)C(=O)N[C@H](C(=O)NCC(=O)N[C@@H](CO)C(=O)N[C@@H](CC(N)=O)C(=O)N[C@H](C(=O)N[C@@H](Cc1ccc(O)cc1)C(N)=O)[C@@H](C)O)C(C)C)[C@@H](C)O [^28Pro-h-Amylin] | show amylin activity in vivo
